# The other results are listed elsewhere or left out.
# System: A. baumannii ATCC 17978
# Assay: relative growth (fraction of control); higher = less inhibition
# Details: 50 µM
row,Structure (SMILES),relative growth
1,NCCn1cccn1,1.02
2,C[C@H](O)C#Cc1ccc2c(c1)O[C@@H](CN(C)C(=O)CN(C)C)[C@@H](C)CN([C@@H](C)CO)S2(=O)=O,0.895
3,COc1cc(OC)c2c(c1)OC(c1ccccc1)CC2=O (configuration not stated),1.01
4,CCN1C(=O)[C@H]2[C@H]3[C@H](O)[C@H](O)C/C(=N\OC[C@@H](O)COCc4ccco4)[C@@H]3CC[C@H]2C1=O,1.09
5,O=C(NO)c1cccc(C(=O)N/N=C/[C@H](O)[C@@H](O)[C@@H](O)[C@H](O)C(=O)O)c1,0.936
6,O=C1CCc2cc(OCCCCc3nnnn3C3CCCCC3)ccc2N1,0.868
7,CCS(=O)(=O)CCn1c([N+](=O)[O-])cnc1C,0.994
8,CO[C@@H]1CN(C)C(=O)c2cc(NS(=O)(=O)CC(F)(F)F)ccc2OC[C@H](C)N(C(=O)NC(C)C)C[C@H]1C,1.22
9,CCN1CCCC(OC(=O)C(c2ccccc2)c2ccccc2)C1.Cl (configuration not stated),1.28
10,COc1cccc(S(=O)(=O)N(C)C[C@H]2Oc3cc(C#CCC(C)C)ccc3S(=O)(=O)N([C@H](C)CO)C[C@H]2C)c1,1.31
11,CCC1=C(C)CN(C(=O)NCCc2ccc(S(=O)(=O)NC(=O)N[C@H]3CC[C@H](C)CC3)cc2)C1=O,1.11
12,CC(C)[Si](C#CCCCC#N)(O[C@H](c1ccccc1)c1cn(Cc2cccc(Cl)c2)nn1)C(C)C,0.919
13,O=C(C[C@@H]1CC=CC[C@H](NC(=O)OCC2c3ccccc3-c3ccccc32)C(=O)OC[C@H](Cc2ccccc2)NC1=O)N[C@H](CO)Cc1ccccc1,0.894
14,Cn1c(=O)c2c(ncn2CCNC2=NCCC2)n(C)c1=O,1.16
15,COCC(=O)Nc1ccc2c(c1)C(=O)N(C)[C@@H]1CC[C@H](CC(=O)NCc3ccc(OC)cc3)O[C@@H]1CO2,1.09
16,NNC(=O)Cn1nnc(N2CCCC2)n1,1.04
17,CCC(C)CCCCC(=O)NC(CCN)C(=O)NC(C(=O)NC(CCN)C(=O)NC1CCNC(=O)C(C(C)O)NC(=O)C(CCN)NC(=O)C(CCN)NC(=O)C(CC(C)C)NC(=O)C(Cc2ccccc2)NC(=O)C(CCN)NC1=O)C(C)O.O=S(=O)(O)O (configuration not stated),0.488
18,COCCNC(=O)C[C@H]1CC[C@@H]2[C@H](COC[C@@H](O)CN2C(=O)Nc2ccccc2OC)O1,1.07
19,C[C@@H](O)c1ccc2ccccc2c1,0.829
20,COCC#Cc1ccc2c(c1)O[C@@H](CN(C)C(=O)Nc1ccccc1F)[C@@H](C)CN([C@@H](C)CO)S2(=O)=O,0.996
21,NCCCN.O=C(O)C(O)C(O)C(=O)O (configuration not stated),0.889
22,Cc1cc(C)n(-c2nc3c(c(=O)n(CCN4CCOCC4)c(=O)n3C)n2C)n1,1.01
